Assay results taken from US20160008366A1 (published 2016).

Test: Quantification of PCI-32765 and PCI-45227 in human plasma from subject 01-001BF (LC-MS/MS)
Assay type: in vivo
Settings: patient 01-001BF, ibrutinib 560 mg daily

C=CC(=O)N1CCC[C@@H](n2nc(-c3ccc(Oc4ccccc4)cc3)c3c(N)ncnc32)C1 [PCI-32765, (R)-1-(3-(4-amino-3-(4-phenoxyphenyl)-1H-pyrazolo[3,4-d]pyrimidin-1-yl)piperidin-1-yl)prop-2-en-1-one]
Calculated Concentration in plasma (1 Month, 3 h): 204 ng/mL | Calculated Concentration in plasma (Day 1, 2 h): 499 ng/mL | Calculated Concentration in plasma (Day 1, pre-dose (0 h), BQL = below quantification limit (1 ng/mL)): BQL | Calculated Concentration in plasma (Day 1, pre-dose (0 h), BQL = below quantification limit (1 ng/mL), listed as Ibrutinib): BQL^b
